{"sequences": {"note": "Amino acid sequences for entries named in this document (tags omitted).", "UniProt P07949, whole entry": "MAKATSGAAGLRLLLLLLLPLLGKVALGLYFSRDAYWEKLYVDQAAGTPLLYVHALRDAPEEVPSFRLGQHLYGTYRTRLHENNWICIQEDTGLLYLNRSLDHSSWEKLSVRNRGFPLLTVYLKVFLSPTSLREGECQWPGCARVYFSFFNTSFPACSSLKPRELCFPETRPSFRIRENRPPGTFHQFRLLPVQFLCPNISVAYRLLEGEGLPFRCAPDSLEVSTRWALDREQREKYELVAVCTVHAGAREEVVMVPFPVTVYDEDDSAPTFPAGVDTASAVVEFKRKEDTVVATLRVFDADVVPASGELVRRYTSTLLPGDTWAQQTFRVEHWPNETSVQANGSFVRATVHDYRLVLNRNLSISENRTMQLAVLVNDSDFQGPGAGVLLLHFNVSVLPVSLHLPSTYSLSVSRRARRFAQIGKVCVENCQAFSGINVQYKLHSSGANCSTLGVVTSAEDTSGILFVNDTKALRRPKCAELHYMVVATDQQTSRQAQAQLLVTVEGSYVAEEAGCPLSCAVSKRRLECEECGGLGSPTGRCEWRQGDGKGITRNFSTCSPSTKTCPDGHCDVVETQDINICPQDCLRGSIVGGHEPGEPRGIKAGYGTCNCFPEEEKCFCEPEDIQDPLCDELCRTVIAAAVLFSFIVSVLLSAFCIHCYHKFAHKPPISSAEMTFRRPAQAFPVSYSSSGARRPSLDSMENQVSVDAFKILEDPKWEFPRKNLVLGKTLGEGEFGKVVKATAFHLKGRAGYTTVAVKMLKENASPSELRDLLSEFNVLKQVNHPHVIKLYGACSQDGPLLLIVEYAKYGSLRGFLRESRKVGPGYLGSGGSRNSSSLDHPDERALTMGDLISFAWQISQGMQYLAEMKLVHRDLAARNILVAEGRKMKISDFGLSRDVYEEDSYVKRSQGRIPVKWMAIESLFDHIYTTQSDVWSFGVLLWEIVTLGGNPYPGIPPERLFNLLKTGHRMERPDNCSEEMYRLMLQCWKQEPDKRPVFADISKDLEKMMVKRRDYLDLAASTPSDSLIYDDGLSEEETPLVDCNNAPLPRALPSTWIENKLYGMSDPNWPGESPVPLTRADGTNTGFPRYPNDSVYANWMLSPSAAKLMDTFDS"}, "source": "BindingDB's records for patent US20230322769", "about": "(Jiangsu Chia Tai Fenghai Pharmaceutical, 2023)", "target": "Proto-oncogene tyrosine-protein kinase receptor Ret (Homo sapiens, UniProt P07949)", "assay": "Inhibition of RET Family Kinases Activity", "note": "pIC50: −log10 of the molar value.", "data": [{"smiles": "COc1ccc(CN2C3CC2CN(c2ccc(-c4cc(N(C)CC(C)(C)O)cn5ncc(C#N)c45)cn2)C3)cn1", "note": "[US20230322769, Compound 79]", "values": [{"measurement": "pIC50", "value": 7.93}]}]}
